Reference: PubChem BioAssay AID463112 (Sanford-Burnham Center for Chemical Genomics, 2010)
The list shows a part of the results, in another mix than the full data. Active and inactive are the calls of the source. Rule as the data show it: active = activation above about 33%; inactive = the rest.

assay: activators of apoptotic CHOP UPR arm, confirmation, cell-based, CHO-CHOP luciferase reporter, single concentration (AID 463112); conditions: CHO-CHOP cells, CHOP-luciferase reporter luminescence; at 10 µM; active compounds read high; percent of tunicamycin response, DMSO as zero;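 also: 0% = DMSO wells and 100% = tunicamycin 10 µg/mL wells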
Summary of the method: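 Signal: Steady-Glo luciferase luminescence; Test system: CHO-CHOP luciferase reporter cell line; Control set: tunicamycin (high) and DMSO (low) controls; Compound: one concentration, 10 µM, in 0.5% DMSO; Schedule: 6 h compound exposure at 37 °C after overnight seeding.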

| SMILES | activation |
| --- | --- |
| C[N+]1=C2C=CC=CC=C2SC12C([N+](=O)[O-])=CC([N+](=O)[O-])=C[C-]2[N+](=O)[O-] (configuration not stated) | inactive: -3.25% |
| CCN(CC)C(=S)SC(NC=O)C(Cl)(Cl)Cl (configuration not stated) | active: 107% |
